Measured values: ChEMBL document CHEMBL1137222, “Architecture of P2Y nucleotide receptors: structural comparison based on sequence analysis, mutagenesis, and homology modeling” (J Med Chem, 2004)

Amino acid sequences for entries named in this document (tags omitted).
UniProt P47900, whole entry R310K: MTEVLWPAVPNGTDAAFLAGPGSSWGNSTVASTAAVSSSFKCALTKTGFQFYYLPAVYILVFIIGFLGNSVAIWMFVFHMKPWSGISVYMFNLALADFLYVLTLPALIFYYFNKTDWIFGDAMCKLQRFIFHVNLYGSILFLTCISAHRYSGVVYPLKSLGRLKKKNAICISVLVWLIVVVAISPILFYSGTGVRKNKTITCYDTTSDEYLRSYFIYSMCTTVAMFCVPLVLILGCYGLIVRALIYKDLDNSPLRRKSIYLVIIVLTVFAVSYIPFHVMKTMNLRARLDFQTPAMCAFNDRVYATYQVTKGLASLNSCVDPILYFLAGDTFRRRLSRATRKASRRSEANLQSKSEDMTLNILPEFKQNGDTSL
UniProt P47900, whole entry C124A: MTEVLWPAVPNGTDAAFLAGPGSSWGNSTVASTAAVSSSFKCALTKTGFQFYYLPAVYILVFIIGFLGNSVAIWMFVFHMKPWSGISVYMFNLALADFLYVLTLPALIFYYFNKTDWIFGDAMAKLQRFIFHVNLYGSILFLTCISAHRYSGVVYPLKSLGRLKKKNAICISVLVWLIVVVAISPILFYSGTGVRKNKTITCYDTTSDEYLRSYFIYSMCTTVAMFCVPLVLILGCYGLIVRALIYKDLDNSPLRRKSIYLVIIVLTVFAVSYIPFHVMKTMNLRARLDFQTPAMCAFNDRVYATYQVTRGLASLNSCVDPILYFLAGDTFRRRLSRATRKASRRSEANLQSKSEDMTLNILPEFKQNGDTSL
UniProt P47900, whole entry F226A: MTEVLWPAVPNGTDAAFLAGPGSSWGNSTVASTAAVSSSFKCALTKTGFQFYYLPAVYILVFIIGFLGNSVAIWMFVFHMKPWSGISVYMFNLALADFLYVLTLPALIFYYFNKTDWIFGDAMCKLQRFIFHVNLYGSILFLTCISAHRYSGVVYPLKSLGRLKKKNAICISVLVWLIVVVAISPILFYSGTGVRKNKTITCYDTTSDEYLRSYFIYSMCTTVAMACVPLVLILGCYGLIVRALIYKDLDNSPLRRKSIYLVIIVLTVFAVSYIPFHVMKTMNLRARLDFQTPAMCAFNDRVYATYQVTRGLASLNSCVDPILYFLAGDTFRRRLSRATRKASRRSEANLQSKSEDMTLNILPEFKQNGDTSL
UniProt P47900, whole entry D204E: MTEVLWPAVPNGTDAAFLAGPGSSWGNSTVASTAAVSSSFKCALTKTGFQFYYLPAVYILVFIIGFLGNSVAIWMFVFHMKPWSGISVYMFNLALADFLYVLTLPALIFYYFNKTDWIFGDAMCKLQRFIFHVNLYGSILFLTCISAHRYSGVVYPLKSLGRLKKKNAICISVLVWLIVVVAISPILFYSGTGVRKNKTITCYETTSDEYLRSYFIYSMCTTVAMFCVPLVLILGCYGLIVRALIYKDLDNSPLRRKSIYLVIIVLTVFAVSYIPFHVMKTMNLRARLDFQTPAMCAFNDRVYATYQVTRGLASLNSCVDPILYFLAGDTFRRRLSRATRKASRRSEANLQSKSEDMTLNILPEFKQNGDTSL
UniProt P47900, whole entry R195A: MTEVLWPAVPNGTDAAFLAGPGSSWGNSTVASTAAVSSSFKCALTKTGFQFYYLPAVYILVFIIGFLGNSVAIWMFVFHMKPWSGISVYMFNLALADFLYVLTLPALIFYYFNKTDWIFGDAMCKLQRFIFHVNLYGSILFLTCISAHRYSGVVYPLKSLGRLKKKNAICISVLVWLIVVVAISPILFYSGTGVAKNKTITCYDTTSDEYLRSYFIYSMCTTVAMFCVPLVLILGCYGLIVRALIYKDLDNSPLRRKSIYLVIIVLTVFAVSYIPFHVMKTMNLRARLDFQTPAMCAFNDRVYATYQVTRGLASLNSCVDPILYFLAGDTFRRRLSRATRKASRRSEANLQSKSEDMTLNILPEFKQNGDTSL
UniProt P47900, whole entry S317A: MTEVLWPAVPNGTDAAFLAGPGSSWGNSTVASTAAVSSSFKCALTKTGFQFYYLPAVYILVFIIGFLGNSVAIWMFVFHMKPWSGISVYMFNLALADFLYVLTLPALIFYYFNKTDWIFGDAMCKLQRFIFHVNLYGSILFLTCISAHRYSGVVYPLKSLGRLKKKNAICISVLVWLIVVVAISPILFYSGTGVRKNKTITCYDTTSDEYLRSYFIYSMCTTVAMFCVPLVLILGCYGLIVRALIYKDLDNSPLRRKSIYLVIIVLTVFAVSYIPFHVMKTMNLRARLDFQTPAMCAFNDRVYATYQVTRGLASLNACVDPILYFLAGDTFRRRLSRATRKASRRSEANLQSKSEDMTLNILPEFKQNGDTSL
UniProt P47900, whole entry K125A: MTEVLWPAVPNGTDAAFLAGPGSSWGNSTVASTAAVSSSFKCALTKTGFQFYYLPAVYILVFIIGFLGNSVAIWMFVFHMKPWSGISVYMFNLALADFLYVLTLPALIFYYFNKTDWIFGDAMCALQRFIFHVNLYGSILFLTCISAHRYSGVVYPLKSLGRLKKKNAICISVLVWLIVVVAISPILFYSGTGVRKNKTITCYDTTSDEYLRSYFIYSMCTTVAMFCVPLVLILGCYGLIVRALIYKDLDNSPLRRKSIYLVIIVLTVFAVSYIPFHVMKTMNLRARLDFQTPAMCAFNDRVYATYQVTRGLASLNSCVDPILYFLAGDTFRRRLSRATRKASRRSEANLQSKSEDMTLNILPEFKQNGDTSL
UniProt P47900, whole entry R310A: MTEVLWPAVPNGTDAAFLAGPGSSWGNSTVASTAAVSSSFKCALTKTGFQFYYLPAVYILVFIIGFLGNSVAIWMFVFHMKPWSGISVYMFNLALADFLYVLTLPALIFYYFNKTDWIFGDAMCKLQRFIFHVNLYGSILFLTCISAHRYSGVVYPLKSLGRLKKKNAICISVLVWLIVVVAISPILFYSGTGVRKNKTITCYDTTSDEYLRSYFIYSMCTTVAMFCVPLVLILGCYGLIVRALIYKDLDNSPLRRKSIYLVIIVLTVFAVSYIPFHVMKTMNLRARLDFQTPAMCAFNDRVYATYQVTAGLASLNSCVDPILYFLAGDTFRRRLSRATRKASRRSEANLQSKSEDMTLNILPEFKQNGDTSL
UniProt P47900, whole entry Y306F: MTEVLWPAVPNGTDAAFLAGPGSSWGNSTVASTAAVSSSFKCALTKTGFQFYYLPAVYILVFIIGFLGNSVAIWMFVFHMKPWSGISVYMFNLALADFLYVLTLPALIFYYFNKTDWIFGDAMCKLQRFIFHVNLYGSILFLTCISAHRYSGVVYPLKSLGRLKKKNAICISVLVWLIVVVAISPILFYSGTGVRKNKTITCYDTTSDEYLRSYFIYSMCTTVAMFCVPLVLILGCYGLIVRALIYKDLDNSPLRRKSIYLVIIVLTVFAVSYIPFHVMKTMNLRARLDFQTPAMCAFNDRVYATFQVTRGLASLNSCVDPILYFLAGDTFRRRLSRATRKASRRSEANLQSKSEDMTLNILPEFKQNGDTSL
UniProt P47900, whole entry Y273F: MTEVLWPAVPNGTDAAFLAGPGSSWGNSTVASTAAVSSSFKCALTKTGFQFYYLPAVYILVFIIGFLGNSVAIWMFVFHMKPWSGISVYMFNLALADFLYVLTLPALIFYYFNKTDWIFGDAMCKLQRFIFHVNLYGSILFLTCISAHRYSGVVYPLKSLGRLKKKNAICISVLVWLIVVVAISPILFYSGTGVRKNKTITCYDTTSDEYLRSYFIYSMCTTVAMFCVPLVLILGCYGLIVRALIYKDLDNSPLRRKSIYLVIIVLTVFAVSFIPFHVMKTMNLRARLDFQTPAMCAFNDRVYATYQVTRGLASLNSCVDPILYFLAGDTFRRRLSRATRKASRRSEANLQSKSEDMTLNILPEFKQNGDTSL
UniProt P47900, whole entry Y136A: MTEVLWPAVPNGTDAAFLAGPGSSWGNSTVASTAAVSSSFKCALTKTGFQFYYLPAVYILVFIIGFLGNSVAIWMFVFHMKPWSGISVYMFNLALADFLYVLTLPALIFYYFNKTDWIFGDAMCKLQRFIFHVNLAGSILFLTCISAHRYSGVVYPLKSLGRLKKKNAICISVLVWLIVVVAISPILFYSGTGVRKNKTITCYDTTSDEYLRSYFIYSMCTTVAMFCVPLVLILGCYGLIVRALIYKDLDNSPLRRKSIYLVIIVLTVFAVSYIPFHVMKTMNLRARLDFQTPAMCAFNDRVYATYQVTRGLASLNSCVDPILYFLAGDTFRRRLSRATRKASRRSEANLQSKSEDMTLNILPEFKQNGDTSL
UniProt P47900, whole entry Y273A: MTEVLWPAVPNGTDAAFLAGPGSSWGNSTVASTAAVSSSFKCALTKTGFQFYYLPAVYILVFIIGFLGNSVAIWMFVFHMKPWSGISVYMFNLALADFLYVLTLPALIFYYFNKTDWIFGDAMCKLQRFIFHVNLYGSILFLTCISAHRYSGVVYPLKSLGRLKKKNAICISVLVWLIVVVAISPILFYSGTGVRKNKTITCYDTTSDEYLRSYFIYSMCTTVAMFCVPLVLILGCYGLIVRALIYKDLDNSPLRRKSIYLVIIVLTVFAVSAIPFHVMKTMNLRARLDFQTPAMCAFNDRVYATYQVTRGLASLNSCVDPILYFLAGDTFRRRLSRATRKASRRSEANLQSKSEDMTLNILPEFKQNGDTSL
UniProt P47900, whole entry T221A: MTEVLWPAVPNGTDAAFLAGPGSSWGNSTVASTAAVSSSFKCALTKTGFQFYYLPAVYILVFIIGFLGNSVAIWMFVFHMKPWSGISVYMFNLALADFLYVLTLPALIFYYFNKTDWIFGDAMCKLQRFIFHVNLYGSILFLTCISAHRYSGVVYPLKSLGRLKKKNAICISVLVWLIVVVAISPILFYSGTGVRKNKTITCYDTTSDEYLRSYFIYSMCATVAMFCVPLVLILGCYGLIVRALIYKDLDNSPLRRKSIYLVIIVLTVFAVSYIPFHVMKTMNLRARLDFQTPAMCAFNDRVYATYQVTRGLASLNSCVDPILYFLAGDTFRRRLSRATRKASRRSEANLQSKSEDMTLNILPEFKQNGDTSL
UniProt P47900, whole entry D204N: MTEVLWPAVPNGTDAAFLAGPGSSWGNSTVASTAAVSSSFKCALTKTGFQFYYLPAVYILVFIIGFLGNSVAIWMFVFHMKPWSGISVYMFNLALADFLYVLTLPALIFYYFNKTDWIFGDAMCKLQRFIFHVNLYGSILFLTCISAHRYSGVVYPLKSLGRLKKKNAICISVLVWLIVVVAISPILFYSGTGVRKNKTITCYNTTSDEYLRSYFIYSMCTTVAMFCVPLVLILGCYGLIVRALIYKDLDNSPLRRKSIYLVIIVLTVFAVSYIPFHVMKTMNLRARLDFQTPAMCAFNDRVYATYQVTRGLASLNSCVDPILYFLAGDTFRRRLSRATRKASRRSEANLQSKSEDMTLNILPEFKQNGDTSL
UniProt P47900, whole entry Y203F: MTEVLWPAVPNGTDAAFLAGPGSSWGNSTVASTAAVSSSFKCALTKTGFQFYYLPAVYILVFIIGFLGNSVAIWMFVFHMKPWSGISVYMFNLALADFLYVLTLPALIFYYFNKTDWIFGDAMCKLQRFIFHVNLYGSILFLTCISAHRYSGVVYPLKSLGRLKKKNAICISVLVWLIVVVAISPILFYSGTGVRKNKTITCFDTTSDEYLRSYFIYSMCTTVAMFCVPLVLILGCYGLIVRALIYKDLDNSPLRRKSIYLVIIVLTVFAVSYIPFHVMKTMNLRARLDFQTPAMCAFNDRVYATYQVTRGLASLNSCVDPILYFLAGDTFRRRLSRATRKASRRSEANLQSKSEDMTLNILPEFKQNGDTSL
UniProt P47900, whole entry S314T: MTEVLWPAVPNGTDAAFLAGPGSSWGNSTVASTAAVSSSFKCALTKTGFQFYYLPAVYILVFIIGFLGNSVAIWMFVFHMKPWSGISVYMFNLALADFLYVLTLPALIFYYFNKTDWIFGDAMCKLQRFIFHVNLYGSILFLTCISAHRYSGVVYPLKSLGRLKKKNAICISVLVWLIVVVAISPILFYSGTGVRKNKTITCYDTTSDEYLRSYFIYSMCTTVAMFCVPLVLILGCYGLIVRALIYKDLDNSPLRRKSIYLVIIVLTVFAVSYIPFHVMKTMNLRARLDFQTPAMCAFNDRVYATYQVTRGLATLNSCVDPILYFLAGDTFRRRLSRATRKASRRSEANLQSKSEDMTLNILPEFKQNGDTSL
UniProt P47900, whole entry K280A: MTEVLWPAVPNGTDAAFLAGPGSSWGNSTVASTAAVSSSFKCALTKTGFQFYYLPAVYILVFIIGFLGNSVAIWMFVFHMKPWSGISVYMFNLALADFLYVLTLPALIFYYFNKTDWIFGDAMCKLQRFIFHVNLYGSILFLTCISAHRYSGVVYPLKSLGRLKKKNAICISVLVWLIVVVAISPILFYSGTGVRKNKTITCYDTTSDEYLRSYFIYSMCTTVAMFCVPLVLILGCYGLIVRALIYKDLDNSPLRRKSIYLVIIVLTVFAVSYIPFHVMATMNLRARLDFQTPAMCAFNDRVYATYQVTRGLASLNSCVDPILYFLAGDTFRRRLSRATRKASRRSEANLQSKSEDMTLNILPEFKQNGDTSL

How the values were obtained:
Format in all cases: cell-based
P2Y purinoceptor 1 [1] = target: P2Y purinoceptor 1 (Homo sapiens, UniProt P47900, R310K); test: Effective concentration required for the activation of human R310K mutant strain P2Y1 receptors expressed in COS-7 cells for the accumulation of inositol phosphate
P2Y purinoceptor 1 [2] = target: P2Y purinoceptor 1 (Homo sapiens, UniProt P47900, C124A); test: Effective concentration required for the activation of human C124A mutant strain P2Y1 receptors expressed in COS-7 cells for the accumulation of inositol phosphate
P2Y purinoceptor 1 [3] = target: P2Y purinoceptor 1 (Homo sapiens, UniProt P47900, F226A); test: Effective concentration required for the activation of human F226A mutant strain P2Y1 receptors expressed in COS-7 cells for the accumulation of inositol phosphate
P2Y purinoceptor 1 [4] = target: P2Y purinoceptor 1 (Homo sapiens, UniProt P47900, D204E); test: Effective concentration required for the activation of human D204E mutant strain P2Y1 receptors expressed in COS-7 cells for the accumulation of inositol phosphate
P2Y purinoceptor 1 [5] = target: P2Y purinoceptor 1 (Homo sapiens, UniProt P47900, R195A); test: Effective concentration required for the activation of human R195A mutant strain P2Y1 receptors expressed in COS-7 cells for the accumulation of inositol phosphate
P2Y purinoceptor 1 [6] = target: T1, P2Y purinoceptor 1 (Homo sapiens, UniProt P47900); test: Inhibition concentration required against wild type strain P2Y1 receptor expressed in COS-7 cells is determined using [3H]-MRS2279 as radioligand
P2Y purinoceptor 1 [7] = target: T1, P2Y purinoceptor 1; test: Effective concentration required for the activation of wild-type P2Y1 receptors expressed in COS-7 cells for the accumulation of inositol phosphate is determined in separate experiment
P2Y purinoceptor 1 [8] = target: P2Y purinoceptor 1 (Homo sapiens, UniProt P47900, S317A); test: Effective concentration required for the activation of human S317A mutant strain P2Y1 receptors expressed in COS-7 cells for the accumulation of inositol phosphate
P2Y purinoceptor 1 [9] = target: P2Y purinoceptor 1 (Homo sapiens, UniProt P47900, K125A); test: Effective concentration required for the activation of human K125A mutant strain P2Y1 receptors expressed in COS-7 cells for the accumulation of inositol phosphate
P2Y purinoceptor 1 [10] = target: P2Y purinoceptor 1 (Homo sapiens, UniProt P47900, R310A); test: Effective concentration required for the activation of human R310A mutant strain P2Y1 receptors expressed in COS-7 cells for the accumulation of inositol phosphate
P2Y purinoceptor 1 [11] = target: T2, P2Y purinoceptor 1 (Homo sapiens, UniProt P47900, Y306F); test: Effective concentration to activate human Y306F mutant strain P2Y1 receptor expressed in COS-7 cells for the accumulation of inositol phosphate
P2Y purinoceptor 1 [12] = target: P2Y purinoceptor 1 (Homo sapiens, UniProt P47900, Y273F); test: Effective concentration to activate human Y273F mutant strain P2Y1 receptor expressed in COS-7 cells for the accumulation of inositol phosphate
P2Y purinoceptor 1 [13] = target: P2Y purinoceptor 1 (Homo sapiens, UniProt P47900, Y136A); test: Effective concentration required for the activation of human Y136A mutant strain P2Y1 receptors expressed in COS-7 cells for the accumulation of inositol phosphate
P2Y purinoceptor 1 [14] = target: P2Y purinoceptor 1 (Homo sapiens, UniProt P47900, Y273A); test: Effective concentration to activate human Y273A mutant strain P2Y1 receptor expressed in COS-7 cells for the accumulation of inositol phosphate
P2Y purinoceptor 1 [15] = target: T1, P2Y purinoceptor 1; test: Effective concentration to activate wild-type P2Y1 receptor expressed in COS-7 cells for the accumulation of inositol phosphate
P2Y purinoceptor 1 [16] = target: T1, P2Y purinoceptor 1; test: Effective concentration required for the activation of wild-type P2Y1 receptors expressed in COS-7 cells for the accumulation of inositol phosphate
P2Y purinoceptor 1 [17] = target: P2Y purinoceptor 1 (Homo sapiens, UniProt P47900, T221A); test: Effective concentration required for the activation of human T221A mutant strain P2Y1 receptors expressed in COS-7 cells for the accumulation of inositol phosphate
P2Y purinoceptor 1 [18] = target: P2Y purinoceptor 1 (Homo sapiens, UniProt P47900, D204N); test: Effective concentration required for the activation of human D204N mutant strain P2Y1 receptors expressed in COS-7 cells for the accumulation of inositol phosphate
P2Y purinoceptor 1 [19] = target: P2Y purinoceptor 1 (Homo sapiens, UniProt P47900, Y203F); test: Inhibition concentration required against human Y203F mutant strain P2Y1 receptor expressed in COS-7 cells is determined using [3H]MRS2279 as radioligand
P2Y purinoceptor 1 [20] = target: P2Y purinoceptor 1 (Homo sapiens, UniProt P47900, S314T); test: Effective concentration required for the activation of human S314T mutant strain P2Y1 receptors expressed in COS-7 cells for the accumulation of inositol phosphate
P2Y purinoceptor 1 [21] = target: P2Y purinoceptor 1 (Homo sapiens, UniProt P47900, K280A); test: Effective concentration required for the activation of human K280A mutant strain P2Y1 receptors expressed in COS-7 cells for the accumulation of inositol phosphate
P2Y purinoceptor 1 [22] = target: P2Y purinoceptor 1 (Homo sapiens, UniProt P47900, R287K); test: Effective concentration required for the activation of human R287K mutant strain P2Y1 receptors expressed in COS-7 cells for the accumulation of inositol phosphate
P2Y purinoceptor 1 [23] = target: P2Y purinoceptor 1 (Homo sapiens, UniProt P47900, K196A); test: Effective concentration required for the activation of human K196A mutant strain P2Y1 receptors expressed in COS-7 cells for the accumulation of inositol phosphate
P2Y purinoceptor 1 [24] = target: P2Y purinoceptor 1 (Homo sapiens, UniProt P47900, F131A); test: Effective concentration required for the activation of human F131A mutant strain P2Y1 receptors expressed in COS-7 cells for the accumulation of inositol phosphate
P2Y purinoceptor 1 [25] = target: P2Y purinoceptor 1 (Homo sapiens, UniProt P47900, R285A); test: Effective concentration required for the activation of human R285A mutant strain P2Y1 receptors expressed in COS-7 cells for the accumulation of inositol phosphate
P2Y purinoceptor 1 [26] = target: P2Y purinoceptor 1 (Homo sapiens, UniProt P47900, D208A); test: Effective concentration required for the activation of human D208A mutant strain P2Y1 receptors expressed in COS-7 cells for the accumulation of inositol phosphate
P2Y purinoceptor 1 [27] = target: T2, P2Y purinoceptor 1; test: Inhibition concentration required against human Y306F mutant strain P2Y1 receptor expressed in COS-7 cells is determined using [3H]MRS2279 as radioligand
P2Y purinoceptor 1 [28] = target: P2Y purinoceptor 1 (Homo sapiens, UniProt P47900, H132A); test: Effective concentration required for the activation of human H132A mutant strain P2Y1 receptors expressed in COS-7 cells for the accumulation of inositol phosphate

EC50 (P2Y purinoceptor 1 [1]): 418 nM | EC50 (P2Y purinoceptor 1 [2]): > 100000 nM | EC50 (P2Y purinoceptor 1 [3]): 20.7 nM | EC50 (P2Y purinoceptor 1 [4]): 145 nM | EC50 (P2Y purinoceptor 1 [5]): 4.7 nM | IC50 (P2Y purinoceptor 1 [6]): 24 nM | EC50 (P2Y purinoceptor 1 [7]): 2.2 nM | EC50 (P2Y purinoceptor 1 [8]): 1.58 nM | EC50 (P2Y purinoceptor 1 [9]): 5.9 nM | EC50 (P2Y purinoceptor 1 [10]): > 100000 nM | EC50 (P2Y purinoceptor 1 [11]): 19 nM | EC50 (P2Y purinoceptor 1 [12]): 6 nM | EC50 (P2Y purinoceptor 1 [13]): 12.6 nM | EC50 (P2Y purinoceptor 1 [14]): > 10000 nM | EC50 (P2Y purinoceptor 1 [15]): 3 nM | EC50 (P2Y purinoceptor 1 [16]): 1.27 nM | EC50 (P2Y purinoceptor 1 [17]): 15.9 nM | EC50 (P2Y purinoceptor 1 [18]): 595 nM | IC50 (P2Y purinoceptor 1 [19]): 260 nM | EC50 (P2Y purinoceptor 1 [20]): 11.7 nM | EC50 (P2Y purinoceptor 1 [21]): 1790 nM | EC50 (P2Y purinoceptor 1 [22]): 74.9 nM | EC50 (P2Y purinoceptor 1 [23]): 2.5 nM | EC50 (P2Y purinoceptor 1 [24]): 18.2 nM | EC50 (P2Y purinoceptor 1 [25]): 9.2 nM | EC50 (P2Y purinoceptor 1 [26]): 3.6 nM | IC50 (P2Y purinoceptor 1 [27]): 360 nM | EC50 (P2Y purinoceptor 1 [28]): 15.9 nM
SMILES: CSc1nc(N)c2ncn([C@@H]3O[C@H](COP(=O)(O)OP(=O)(O)O)[C@@H](O)[C@H]3O)c2n1
